The test can be described thus: qHTS for Inhibitors of human tyrosyl-DNA phosphodiesterase 1 (TDP1): qHTS in cells in absence of CPT. Also: nearly all actives have a fitted effect of over 55% in size. Particulars: DT40 Tdp1-/- hTDP1 cells, no CPT, ATP luminescence, 48 h.

This is a selection; strong and weak results do not stand in their true shares. Records with an inconclusive call do not appear. Active and inactive are the calls of the source. Calls follow the shape of the dose curve; as a rule, active = well fitted inhibition curve with a large enough effect; inconclusive = small, poorly fitted or top-dose-only effect; inactive = flat fitted curve, though single readings scatter.
% is scaled to controls: 0 for no effect and ±100 for the full control effect.

With `CCC(=O)N(c1ccccc1)C1(COC)CCN(CCn2nnn(CC)c2=O)CC1`, the activity change, negative = growth inhibition was inactive: -20.7% (at 46.2 µM (top of the series)) and inactive: -15.5% (at 92.5 µM (top of the series)).

The values are drawn from PubChem BioAssay AID686978 (National Center for Advancing Translational Sciences (NCATS), 2013).
